We go through 1 substance from article PMC11643450, “Pimozide and Adipic Acid: A New Multicomponent Crystalline Entity for Improved Pharmaceutical Behavior” (Molecules, 2024).

A short description of this series: Solubility at equilibrium, shake flask method with spectrophotometric determination. It counts as physicochemical. Conditions: for Solubility at Equilibrium: 21 °C. On the procedure:
The samples were sieved through a 230-mesh grid, 63 μm (Endecotts, London, UK).
The spectra of AAD and PMZ were recorded previously to prevent the possibility of interference in the absorbance of the two molecules. […] An excess sample is placed in the flasks containing the three different fluids and left under stirring. At time intervals, a portion of the solution was taken and filtered on a 0.22 μm filter (Millipore Merck, Darmstadt, Germany). The drug concentration was determined using UV detection (Lambda 25, Perkin-Elmer, Monza, Italy). The test was repeated until equilibrium was reached. The spectra of AAD and PMZ were recorded previously to prevent the possibility of interference in the absorbance of the two molecules.

As a reminder, the Solubility is the dissolved amount per volume that the medium holds. A lower Solubility goes with a poorly soluble substance. Regarding [PMZH]2[adipate] [PMZ:AAD 0.66:0.33ev], the “Solubility at Equilibrium” value is, setting by setting: (H2O (deionized water)) 0.0089 ± 0.0004 mg/mL; (pH 2.0 (0.01N hydrochloric acid)) 0.3351 ± 0.0036 mg/mL; (pH 4.5 (phosphate buffer)) 0.0273 ± 0.0005 mg/mL. Besides, the “Increase of solubility compared to pure PMZ” value is, setting by setting: (deionized water) “about six times”; (fluid at pH = 2) “doubles”; (pH = 4.5) “more than four times”.
